In ChEMBL document CHEMBL4706640, “Structure-Based Drug Design and Synthesis of PI3Kα-Selective Inhibitor (PF-06843195)” (J Med Chem, 2021) one finds Ki and IC50 data, which are given here for one molecule.

Protein sequences, listed by entry. Tags and fused reporters are not part of them.
UniProt P42336, whole entry: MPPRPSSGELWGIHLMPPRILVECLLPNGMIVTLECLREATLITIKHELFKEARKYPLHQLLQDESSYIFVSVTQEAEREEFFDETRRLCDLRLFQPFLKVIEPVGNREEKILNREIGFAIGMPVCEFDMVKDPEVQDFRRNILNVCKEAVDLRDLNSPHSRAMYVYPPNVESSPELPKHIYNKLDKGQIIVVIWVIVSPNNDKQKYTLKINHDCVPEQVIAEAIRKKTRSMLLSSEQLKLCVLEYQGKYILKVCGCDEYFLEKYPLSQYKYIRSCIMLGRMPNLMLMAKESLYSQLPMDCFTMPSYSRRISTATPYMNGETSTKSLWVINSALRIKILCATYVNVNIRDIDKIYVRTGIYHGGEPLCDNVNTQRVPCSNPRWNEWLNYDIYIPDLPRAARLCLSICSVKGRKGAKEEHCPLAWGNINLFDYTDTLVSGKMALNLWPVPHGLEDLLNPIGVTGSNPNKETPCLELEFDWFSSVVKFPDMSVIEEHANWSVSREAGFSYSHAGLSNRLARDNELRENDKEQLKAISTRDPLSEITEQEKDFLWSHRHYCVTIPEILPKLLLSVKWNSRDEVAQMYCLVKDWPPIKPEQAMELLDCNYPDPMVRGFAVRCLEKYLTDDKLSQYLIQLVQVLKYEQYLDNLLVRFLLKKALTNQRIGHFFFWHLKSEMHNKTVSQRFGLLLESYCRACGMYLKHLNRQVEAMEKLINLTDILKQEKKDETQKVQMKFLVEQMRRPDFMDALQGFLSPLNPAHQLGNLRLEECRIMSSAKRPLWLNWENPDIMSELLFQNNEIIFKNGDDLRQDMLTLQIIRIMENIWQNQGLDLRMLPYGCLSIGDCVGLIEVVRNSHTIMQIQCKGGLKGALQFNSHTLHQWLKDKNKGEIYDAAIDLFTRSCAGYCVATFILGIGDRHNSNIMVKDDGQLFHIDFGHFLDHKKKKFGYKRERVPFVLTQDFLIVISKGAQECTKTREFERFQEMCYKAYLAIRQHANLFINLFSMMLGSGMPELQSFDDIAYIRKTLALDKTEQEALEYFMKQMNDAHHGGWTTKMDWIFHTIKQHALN

Where only a bound is given, the exact number is not on record here.

For test [1], the target named is PI3-kinase p110-alpha/p85-alpha (Homo sapiens, UniProt P42336). Description: Inhibition of recombinant human full-length PI3K p110alpha/p85alpha (322 to 600) expressed in baculovirus infected Sf21 cells using phosphatidylinositol 4,5-bisphosphate as substrate preincubated for 15 mins followed by addition of ATP and measured after 30 mins by fluorescence polarisation assay. On the technique in general: In fluorescence polarisation assays a small probe gives low polarisation when free and higher when bound to something large.

The target of test [2] is Phosphatidylinositol 4,5-bisphosphate 3-kinase catalytic subunit alpha isoform (Homo sapiens, UniProt P42336). Description: Inhibition of recombinant human N-terminal Myr signal and C-terminal Flag-tagged PI3K p110alpha expressed in rat Rat1 cells. It counts as cell-based.

For the molecule `CC(C)(C)OC(=O)N1CC[C@](CO)(Nc2cc(-c3cnc(N)nc3)nc(N3CCOCC3)n2)C1`, in test [1], the Ki (commonly the equilibrium dissociation constant of an inhibitor or competing ligand from its target) is less than 0.018 nM. In test [2], the IC50 (usually the concentration needed to halve the response being measured) was 46 nM.
